# ChEMBL document CHEMBL2218924, “A broad activity screen in support of a chemogenomic map for kinase signalling research and drug discovery” (Biochem J, 2013)
# Chains of the proteins cited; added tags and fusions are not shown. Lines headed by an entry give the natural chain unless they say otherwise; changes in a name come on top.
# UniProt P49761: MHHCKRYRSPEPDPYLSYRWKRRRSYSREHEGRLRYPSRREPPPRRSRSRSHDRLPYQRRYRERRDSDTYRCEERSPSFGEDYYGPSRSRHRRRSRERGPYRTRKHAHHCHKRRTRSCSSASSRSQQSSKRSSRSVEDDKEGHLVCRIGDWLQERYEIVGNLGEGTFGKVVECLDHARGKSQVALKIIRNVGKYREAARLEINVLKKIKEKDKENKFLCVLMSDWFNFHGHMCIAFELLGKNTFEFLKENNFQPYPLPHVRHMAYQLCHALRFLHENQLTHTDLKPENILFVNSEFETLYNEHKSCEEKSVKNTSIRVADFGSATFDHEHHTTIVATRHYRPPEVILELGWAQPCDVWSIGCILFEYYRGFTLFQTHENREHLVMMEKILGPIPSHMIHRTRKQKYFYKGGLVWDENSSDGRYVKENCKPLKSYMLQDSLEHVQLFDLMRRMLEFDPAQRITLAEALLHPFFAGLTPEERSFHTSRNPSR
# UniProt Q14012: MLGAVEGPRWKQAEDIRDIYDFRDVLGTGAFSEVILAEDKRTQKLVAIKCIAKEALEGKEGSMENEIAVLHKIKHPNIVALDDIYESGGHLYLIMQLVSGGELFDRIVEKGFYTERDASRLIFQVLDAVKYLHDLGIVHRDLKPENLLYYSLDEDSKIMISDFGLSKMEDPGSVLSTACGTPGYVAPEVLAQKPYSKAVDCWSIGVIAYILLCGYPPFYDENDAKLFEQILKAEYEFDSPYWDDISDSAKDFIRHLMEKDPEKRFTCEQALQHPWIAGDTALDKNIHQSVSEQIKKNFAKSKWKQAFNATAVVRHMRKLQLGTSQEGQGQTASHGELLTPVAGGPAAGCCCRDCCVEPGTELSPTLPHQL
# UniProt P07947, whole entry, looked up: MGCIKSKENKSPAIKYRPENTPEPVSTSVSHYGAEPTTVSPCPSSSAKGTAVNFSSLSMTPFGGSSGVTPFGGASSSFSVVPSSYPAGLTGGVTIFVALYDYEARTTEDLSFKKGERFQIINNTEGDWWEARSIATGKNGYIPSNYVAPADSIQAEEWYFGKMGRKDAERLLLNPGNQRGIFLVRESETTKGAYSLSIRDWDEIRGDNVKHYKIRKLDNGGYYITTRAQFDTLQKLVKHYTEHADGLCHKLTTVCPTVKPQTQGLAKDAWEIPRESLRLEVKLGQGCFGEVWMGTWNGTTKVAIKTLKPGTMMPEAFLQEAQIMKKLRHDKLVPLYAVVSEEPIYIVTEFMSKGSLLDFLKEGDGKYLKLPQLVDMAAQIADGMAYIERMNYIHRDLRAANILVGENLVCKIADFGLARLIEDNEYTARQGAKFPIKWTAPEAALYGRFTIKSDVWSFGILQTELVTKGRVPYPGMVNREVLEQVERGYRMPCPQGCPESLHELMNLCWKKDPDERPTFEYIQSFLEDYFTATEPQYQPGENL
# For part of these data: The strong results were mostly taken out for another list; the other results follow. Only a part is listed here, and it is no random draw.
# How the values were obtained:
# Settings in all cases: at 1 µM
# [1] = target: Dual specificity protein kinase CLK3 (Homo sapiens) (UniProt P49761)
# [2] = target: Calcium/calmodulin-dependent protein kinase type 1 (Homo sapiens) (UniProt Q14012)
# [3] = target: Tyrosine-protein kinase Yes (Homo sapiens) (UniProt P07947)
SMILES,residual activity [1] [%],residual activity [2] [%],residual activity [3] [%]
CC(=O)c1ccc(N2CCOCC2)cc1O,85,–,–
COc1cc2ncc(-c3ccccc3)nc2cc1OC,–,112,112
